# Measured values taken from patent US8816078B2, “Acidic gas removal by aqueous amine solvents” (Board of Regents, The University of Texas System, priority 2010, dated 2014).
# Test: Thermal degradation in sealed stainless steel cylinders at 150° C., loss of original amine over time
# Assay type: physicochemical
# Conditions: 4 weeks, α 0.3 moles CO2 per mole alkalinity
# Method: Samples of each solution were contained in stainless steel, well-sealed cylinders and placed in a forced-convection oven for extended periods of time. The loss of the original amine is tracked over time to determine the rate of thermal degradation.
# The thermal degradation of 8 m 1-MPZ at 150° C. was studied. The main degradation products are PZ, 1,4-DMPZ, formyl amides, and formate.
# The thermal degradation of a blend of 4 m PZ and 4 m 1-MPZ at 150° C. was previously studied. […] Based on the results of the 8 m 1-MPZ experiment discussed above, 1,4-DMPZ was expected to be produced as a degradation product.
# Solutions with varying compositions were placed in thermal cylinders at 150° C. for up to 15 weeks. At this temperature, some degradation will occur, but the conversion between PZ, 1-MPZ, and 1,4-DMPZ should be able to be observed. Three starting solutions were used: 5 m PZ+2 m 1-MPZ+1 m 1,4-DMPZ (5/2/1), 5 m PZ+2.5 m 1-MPZ+0.5 m 1,4-DMPZ (5/2.5/0.5), and 5 m PZ+1.5 m 1-MPZ+[…]. To establish the blend concentrations, it was originally hypothesized that the equilibrium concentration would be 5/2/1. Therefore, that blend, as well as two blends with increased or decreased 1-MPZ concentrations were used and the concentration of 1,4-DMPZ was adjusted to maintain a total concentration of 8 m.
smiles,measurement,value
"CC1CNCCN1 (racemic) [2MPZ, 2-methyl piperazine]",loss of the initial amine,about 6%
